Reference: patent US20100137419A1, “ANTI-CANCER AGENT” (WAN STATION CO., LTD., priority 2006, published 2010)

Experiments:
[1] = test system: mRNA expression of Bcl-2, Bax, Bad and Caspase-3; assay type: cell-based
Protocol: The mRNA expression of an apoptosis-resistant gene Bcl-2, the mRNA expression of apoptosis-promoting genes Bax and Bad, and the mRNA expression of a cell death-executing gene Caspase-3 were analyzed based on ordinary β-actin proteins. The obtained results were compared with those of the conventional anti-cancer agent 5-FU. After extraction of total RNA, each mRNA expression was examined by a PCR (polymerase chain reaction) method. Each sample was electrophoresed by agarose gel electrophoresis, and fluorescence was then measured. Thereafter, the fluorescence ratio of each sample with a sample (a control), in which no anti-cancer agents were used, was obtained.

[2] = solubility of the rotaxane compound; assay type: physicochemical

For “[2][bis (2-(3,5-dimethylphenylcarbonyloxy)ethyl) ammonium trifluoromethanesulfonate]-[dibenzo-24-crown-8] rotaxane”, the “anti-cancer action compared with conventional anti-cancer agent 5-FU” value [1] was “stronger than the conventional anti-cancer agent”, the “fluorescence ratio of mRNA expression (Bcl-2, Bax, Bad, Caspase-3) to control without anti-cancer agent” value ([1]; based on β-actin, applied amount of rotaxane one-tenth or less of that of 5-FU (FIG. 5)) was “approximately similar to 5-FU” and the “solubility in organic solvent” value ([2]; organic solvent) was “organic-solvent-soluble”. The “solubility in dimethyl sulfoxide (DMSO)” value ([2]; solvent such as DMSO) was “can be dissolved” and the solubility in water ([2]; water) was “water-insoluble”.
